Results on 38 molecules are retold here after PubChem BioAssay AID624170 (National Center for Advancing Translational Sciences (NCATS), 2012).

The chains behind the UniProt entries cited, without tags or fusion partners.
UniProt O94925, whole entry: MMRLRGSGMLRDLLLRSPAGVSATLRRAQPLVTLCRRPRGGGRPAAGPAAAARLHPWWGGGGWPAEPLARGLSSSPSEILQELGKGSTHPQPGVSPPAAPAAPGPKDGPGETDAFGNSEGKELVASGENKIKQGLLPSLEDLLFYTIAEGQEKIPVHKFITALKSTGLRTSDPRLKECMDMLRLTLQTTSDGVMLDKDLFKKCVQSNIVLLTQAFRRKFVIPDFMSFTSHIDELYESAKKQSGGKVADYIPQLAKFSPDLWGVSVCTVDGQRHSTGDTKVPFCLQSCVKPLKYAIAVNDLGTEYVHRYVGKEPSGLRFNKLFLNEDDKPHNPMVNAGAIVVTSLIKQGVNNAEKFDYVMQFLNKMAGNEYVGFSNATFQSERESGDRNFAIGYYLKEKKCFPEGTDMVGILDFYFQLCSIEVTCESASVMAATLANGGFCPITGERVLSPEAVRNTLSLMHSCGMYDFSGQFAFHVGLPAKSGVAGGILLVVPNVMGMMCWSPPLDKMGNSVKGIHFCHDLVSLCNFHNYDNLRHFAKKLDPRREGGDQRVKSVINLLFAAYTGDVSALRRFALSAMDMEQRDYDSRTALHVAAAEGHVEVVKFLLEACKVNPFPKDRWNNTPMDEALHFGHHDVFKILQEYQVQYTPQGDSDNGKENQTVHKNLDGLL

Only a part is listed here, and it is no random draw. Results filed as inconclusive are left out. The source made the active and inactive calls. The call rests on the fitted dose curve; in most records, active means well fitted inhibition curve with a large enough effect; inconclusive means small, poorly fitted or top-dose-only effect, or another doubt; inactive means no such curve, though single readings can be large or run the other way.
On the % scale 0 is the no-effect control and ±100 the full control effect.

In this experiment the target is Glutaminase kidney isoform, mitochondrial (Homo sapiens) (UniProt O94925). Nature of the experiment: qHTS for Inhibitors of Glutaminase (GLS). The settings on record: GLS enzymatic activity, qHTS titration; at 45.5 µM (top of the series). (In general: Quantitative high-throughput screening tests each substance at several concentrations.)
Consider `CCCOc1cccc(C(=O)NCC2(N3CCOCC3)CCCCC2)c1`, for which the activity change, negative = inhibition is inactive: 4.18%. The figure for `O=C(NCC1(N2CCCCC2)CCCCC1)c1cccc(C(F)(F)F)c1` is inactive: 14.5%; for `COc1ccccc1C(=O)NCC1(N2CCOCC2)CCCCC1` it is inactive: 2.72%.

For `O=C(NCC1(N2CCCCC2)CCCCC1)c1ccc(F)cc1`, the activity change, negative = inhibition was inactive: -4.13%. Turning to `O=P1(N(CCCl)CCCl)SCCCS1`, the activity change, negative = inhibition was inactive: 0.141%. Then `CCCCn1nnnc1C(c1cc2ccccc2o1)N1CCC(n2c(=O)[nH]c3ccccc32)CC1` (stereo not drawn), with inactive: 7.86%; and `CCCCOc1ccc(C(=O)NCC2(N3CCOCC3)CCCCC2)cc1`, with inactive: -5.02%. The figure for `COc1ccc(NC2CCN(CCc3ccccc3)CC2)c(OC)c1` is inactive: 34.4%; for `CCOC(=O)N1CCC(Nc2ccc(F)cc2)CC1` it is inactive: 0.498%; for `CC(C)(C)n1nnnc1C(c1ccccc1)N1CCC(n2c(=O)[nH]c3ccccc32)CC1` (stereo not drawn) it is inactive: 2.81%. Then `O=C(NCC1(N2CCOCC2)CCCCC1)c1ccc(Cl)cc1`, with inactive: 4.03%; and `O=C1CCN(Cc2ccccc2)CC1`, with inactive: 2.86%. In the case of `CCOc1ccc(C)cc1CN(CCCl)CCCl`, the activity change, negative = inhibition is inactive: -11.1%. In the case of `COc1cc(C(=O)NCC2(N(C)C)CCCCC2)ccc1OC(F)F`, the activity change, negative = inhibition was inactive: 22.9%.

Regarding `CCOC(=O)N1CCC(Nc2cccc(C)c2)CC1`, the activity change, negative = inhibition is inactive: 15.7%. The figure for `O=c1[nH]c2ccccc2n1C1CCN(C(c2cccc3ccccc23)c2nnnn2C2CCCC2)CC1` (stereo not drawn) is inactive: -0.228%.

With `O=c1[nH]c2ccccc2n1C1CCN(C(c2ccccc2)c2nnnn2C2CCCCC2)CC1` (stereo not drawn), the activity change, negative = inhibition is inactive: 1.03%.

For the molecule `CSc1ccccc1C(=O)NCC1(N2CCCCC2)CCCCC1`, the activity change, negative = inhibition was inactive: -1%. Take `Cc1cccc(NC2(C#N)CCN(Cc3ccccc3)CC2)c1`: the activity change, negative = inhibition was inactive: -8%. Then `COc1ccc(C(=O)NCC2(N3CCCCC3)CCCCC2)cc1`, with inactive: -17.6%; and `CCC(c1nnnn1C1CCCC1)N1CCC(n2c(=O)[nH]c3ccccc32)CC1` (stereo not drawn), with inactive: 0.505%; and `COc1ccc(C(=O)NCC2(N3CCCCC3)CCCCC2)c(OC)c1OC`, with inactive: 16.6%. Then `CC(C)(C)OC(=O)N1CCC(N(C(=O)c2ccccc2)c2ccc(F)cc2)CC1`, with inactive: -8.31%; and `O=C(NCC1(N2CCCCC2)CCCCC1)c1ccc(=O)[nH]c1`, with inactive: 16.6%; and `CCCCn1nnnc1C(c1cccs1)N1CCC(n2c(=O)[nH]c3ccccc32)CC1` (stereo not drawn), with inactive: 9.17%. Then `CCCCn1nnnc1C(CC)N1CCC(n2c(=O)[nH]c3ccccc32)CC1` (stereo not drawn), with inactive: -7.4%.

On to `O=C(NCC1(N2CCCCC2)CCCCC1)c1cccs1`, for which the activity change, negative = inhibition is inactive: -5.43%.

On to `O=C(OC1CN2CCC1CC2)C1c2ccccc2Oc2ccccc21` (stereo not drawn), for which the activity change, negative = inhibition is inactive: 11.3%. The figure for `O=c1[nH]c2ccccc2n1C1CCN(C(c2cc3ccccc3o2)c2nnnn2C2CCCCC2)CC1` (stereo not drawn) is inactive: -9.65%; for `N#CC1(Nc2ccccc2)CCN(Cc2ccccc2)CC1` it is inactive: 8.04%; for `O=C(NCC1(N2CCCCC2)CCCCC1)c1ccc(Cl)s1` it is inactive: 14.9%.

Take `COc1ccc(Cl)cc1C(=O)NCC1(N2CCOCC2)CCCCC1`: the activity change, negative = inhibition is inactive: 17.2%. Then `CCOC(=O)N1CCC(Nc2ccc(OC)cc2)CC1`, with inactive: 20%; and `CCCCn1nnnc1C(c1ccc(OC)cc1)N1CCC(n2c(=O)[nH]c3ccccc32)CC1` (stereo not drawn), with inactive: 8.63%; and `O=c1[nH]c2ccccc2n1C1CCN(C(c2ccccc2OC(F)(F)F)c2nnnn2C2CCCCC2)CC1` (stereo not drawn), with inactive: 2.81%. Then `O=C(NCC1(N2CCCCC2)CCCCC1)c1ccc(Cl)nc1`, with inactive: -0.365%. The figure for `Cc1cc(C)cc(N(C(=O)c2ccccc2)C2CCN(C(=O)OC(C)(C)C)CC2)c1` is inactive: 0.318%; for `O=C(NCC1(N2CCOCC2)CCCCC1)c1cc2ccccc2o1` it is inactive: 17.7%.
